Common to all, as to experiment: radioligand binding
In assay [1] the target is human NK1 receptor (human, UniProt P25103 1-407).
For assay [2], the target named is human δ-opioid receptor (human, UniProt P41143 1-372).
The target in assay [3] is rat NK1 receptor (rat, UniProt P14600 1-407).

By UniProt entry, the sequences of proteins in these tests, tags left out.
UniProt P25103, whole entry: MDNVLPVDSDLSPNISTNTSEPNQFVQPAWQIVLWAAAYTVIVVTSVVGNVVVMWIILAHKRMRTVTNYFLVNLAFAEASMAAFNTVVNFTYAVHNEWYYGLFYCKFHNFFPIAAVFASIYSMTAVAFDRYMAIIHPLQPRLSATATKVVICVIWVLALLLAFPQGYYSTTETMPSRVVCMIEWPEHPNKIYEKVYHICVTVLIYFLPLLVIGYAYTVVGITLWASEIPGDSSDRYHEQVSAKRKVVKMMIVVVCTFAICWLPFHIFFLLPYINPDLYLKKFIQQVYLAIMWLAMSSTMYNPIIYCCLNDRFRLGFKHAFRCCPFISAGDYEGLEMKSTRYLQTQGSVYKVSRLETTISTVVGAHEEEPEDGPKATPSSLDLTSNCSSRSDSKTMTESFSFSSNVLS
UniProt P14600, whole entry: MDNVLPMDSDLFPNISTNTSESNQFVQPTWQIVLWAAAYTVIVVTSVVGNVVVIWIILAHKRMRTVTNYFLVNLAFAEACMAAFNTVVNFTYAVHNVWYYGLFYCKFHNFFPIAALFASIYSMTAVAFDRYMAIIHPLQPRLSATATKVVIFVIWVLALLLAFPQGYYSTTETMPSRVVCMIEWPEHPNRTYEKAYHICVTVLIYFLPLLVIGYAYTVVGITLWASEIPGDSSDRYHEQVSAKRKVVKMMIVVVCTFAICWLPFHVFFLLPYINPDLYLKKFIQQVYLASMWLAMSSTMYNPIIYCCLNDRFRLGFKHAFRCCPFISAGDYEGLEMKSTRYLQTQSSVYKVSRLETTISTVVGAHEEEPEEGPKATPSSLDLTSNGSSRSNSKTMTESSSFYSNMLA

B1: Tyr-D-Ala-Gly-Phe-Nle-Pro-Ser(Glc)-Trp-NH-3’,5’-Bzl(CF3)2 (peptide)
chain: YAGFXPSW
modifications: D-Ala at 2; norleucine (Nle) at 5 (written X); O-β-glucosylated serine (Ser(Glc)) at 7; C-terminal 3’,5’-bis(trifluoromethyl)benzyl amide
B1 gave a LogIC50 in assay [1] of -9.75.

B2: Tyr-D-Ala-Gly-Phe-Nle-Ser(Glc)-Leu-Trp-NH-3’,5’-Bzl(CF3)2 (peptide)
chain: YAGFXSLW
modifications: D-Ala at 2; norleucine (Nle) at 5 (written X); O-β-glucosylated serine (Ser(Glc)) at 6; C-terminal 3’,5’-bis(trifluoromethyl)benzyl amide
As to B2, the LogIC50 in assay [2] is -7.12; in assay [3], -7.14.

(Values after PMC3521585 (Journal of medicinal chemistry, 2009).)
